This passage reports viability results from PubChem BioAssay.

The entries are a selection whose mix differs from that of the whole data set. The source made the active and inactive calls.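 How the source made its calls: active means viability at or below 10% of carrier control in both of two separate runs; inconclusive means viability at or below 10% in only one of the two runs; inactive means the rest.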

A short description of this test: reduced viability of SK-BR-3 breast cancer cells – cell-based, 24 h, human, pilot screen (AID 572).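 Further: compound exposure lasted between 18 and 24 h rather than exactly 24 h; 100% = carrier-treated control wells.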 Conditions: SK-BR-3 viability, CellTiter-Glo luminescence, at 10 µM, stronger effect = lower value.
For `CCOP1(=S)c2c(C)nn(CCC#N)c2N=C(c2ccccc2F)N1C` (stereo not drawn), the viability (in general, a read-out of living cells in per cent, often relative to untreated cells) was inactive: 114%. The result for `O=P(Nc1nccs1)(c1ccccc1)c1ccccc1` reads inactive: 102%; that for `O=C(COc1ccccc1)OC1CN2CCC1CC2` (stereo not drawn), inactive: 94.5%.
